Measurements reported in patent publication US7531500B2, “Preventing airway mucus production by administration of EGF-R antagonists” (The Regents of the University of California, priority 1998, dated 2009).

System: NCI-H292 cells
Test: Immunoassay of MUC5AC protein in NCI-H292 cells (Example 2)
Type: cell-based, human
Conditions: 1 h incubation, protein at 24 h; IL-8 10^-8 M, fMLP 10^-8 M, TNFα 20 ng/ml
Protocol: Cell Culture. NCI-H292 cells, a human pulmonary mucoepidermoid carcinoma cell line, were grown in RPMI 1640 medium containing 10% fetal bovine serum, penicillin (100 U/ml), streptomycin (100 μg/ml) and Hepes (25 mM) at 37° C. in a humidified 5% CO2, water-jacketed incubator. Either 6-well culture plates or 8-chamber slides were used to culture the cells. When confluent, cells were incubated for 1 h with neutrophils (10^6 cells/ml) alone, TNFα alone (recombinant human TNFα, 20 ng/ml, Genzyme, Cambridge, Mass.), IL-8 (recombinant human IL-8, 10^−8 M, Genzyme) alone, fMLP (10^−8 M, Sigma, St. Louis, Mo.) alone, TNFα plus neutrophils, IL-8 plus neutrophils, fMLP plus neutrophils, hydrogen peroxide (H2O2, 200 μM), cigarette smoke solution or TGFα (recombinant human TGFα, 0.1-25 ng/ml, Calbiochem, San Diego, Calif.). The cells were then washed and incubated with fresh medium alone. Experiments were terminated at preselected times (for mRNA, 6 h and 12 h; for protein, 24 h). As controls, cells were incubated with medium alone for same time periods. […]
Immunoassay of MUC5AC Protein. MUC5AC protein was measured as described above. […] Absorbance was read at 450 nm.

TNFα: recombinant human tumor necrosis factor alpha (Genzyme)
MUC5AC synthesis, stimulus alone without neutrophils: small, insignificant increase
